Publication PMC7108782, “Direct interaction of metastasis-inducing S100P protein with tubulin causes enhanced cell migration without changes in cell adhesion” (Biochemical Journal, 2020)

How the values were obtained:
S100P - α,β-tubulin = assay: SPR inhibition of S100P binding to α,β-tubulin-coated chip by peptides; parameters: species or system human; conditions: 20 µM peptide, 1 µM S100P
Method: For SPR binding assays, α,β-tubulin proteins described earlier were immobilised on a carboxymethylated dextran surface of a CM5 chip using BS^3 for use in Biocore X100. Recombinant S100P produced as described previously was used as a ligand in different concentrations at 20, 50, 100, 200, 1000, 2000 nM for calculation of the equilibrium dissociation constant (Kd) from the association/dissociation rate constants and from the extent of binding near equilibrium (Supplementary Table S2), as described previously. To detect the effects of tubulin peptides on the interaction of tubulin, different concentrations of tagged and untagged peptides were mixed with 1 µM S100P first and the mixtures were then applied to the tubulin-coated chip. The relative changes in kinetics and binding extents with different peptides were calculated using software provided by the manufacturer.

S100P [1] = molecular target: T1, S100P (Homo sapiens, UniProt P25815); assay: Isothermal titration calorimetry (ITC) of tubulin peptides with S100P; assay type: binding; conditions: 25°C
T1 construct: made in house
T1 sequence (P25815 1-95): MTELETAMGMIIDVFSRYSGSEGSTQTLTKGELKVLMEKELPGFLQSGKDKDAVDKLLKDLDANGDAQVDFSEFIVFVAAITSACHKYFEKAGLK
Method: Measurements were conducted using an ITC-200 instrument (Microcal) as previously described. ITC titrations were performed in 20 mM MES pH 6.1, 50 mM NaCl, 1.0 mM TCEP and 5 mM CaCl2 (for Ca^2+-form of S100P) at 25°C. Due to low solubility, peptide solutions at concentrations of 10–400 µM were placed in the cell and titrated with S100P at concentrations of 0.5–3 mM, depending on the peptide concentration. Data were integrated and fitted to a single site binding equation using Origin 7 software which was included with the ITC module (Malvern Microcal, Malvern, U.K.).

HeLa-A19 cells = assay: Boyden chamber cell migration, S100P-inducible HeLa-A19; assay type: cell-based, human; conditions: NMIIA-containing HeLa cells, 20 µM
From the text: Cell migration rate (%) = M/G × 100.

S100P [2] = molecular target: T1, S100P; assay: NMR 1H,15N HSQC of 15N-labelled S100P with tubulin peptides; assay type: binding; conditions: 0.1 mM 15N-S100P + equimolar peptide, 40°C, 20 mM MES, 50 mM NaCl, 0.5 mM CaCl2, 2 mM TCEP, pH 6.1, 800 MHz

CC[C@H](C)[C@H](NC(=O)[C@H](CCCNC(=N)N)NC(=O)[C@H](CC(=O)O)NC(=O)[C@H](CC(C)C)NC(=O)[C@@H](NC(=O)[C@H](CC(C)C)NC(=O)[C@@H](N)CC(=O)O)C(C)C)C(=O)N[C@@H](CCCNC(=N)N)C(=O)N[C@@H](CCCCN)C(=O)N[C@@H](CC(C)C)C(=O)N[C@@H](C)C(=O)N[C@@H](CC(=O)O)C(=O)N[C@@H](CCC(N)=O)C(=O)N[C@@H](CS)C(=O)N[C@H](C(=O)NCC(=O)N[C@@H](CC(C)C)C(=O)N[C@@H](CCC(N)=O)C(=O)NCC(=O)N[C@@H](Cc1ccccc1)C(=O)N[C@@H](CC(C)C)C(=O)N[C@H](C(=O)N[C@@H](Cc1ccccc1)C(=O)N[C@@H](Cc1c[nH]cn1)C(=O)N[C@@H](CO)C(=O)N[C@@H](Cc1ccccc1)C(=O)NCC(=O)NCC(=O)NCC(=O)N[C@H](C(=O)O)[C@@H](C)O)C(C)C)[C@@H](C)O [DLV]
inhibition of extent of binding of S100P to α,β-tubulin (S100P - α,β-tubulin): over 50% | Kd (S100P [1]; 20 mM MES pH 6.1, 50 mM NaCl, 5 mM CaCl2, best-fit curve, read-out: Kd (Figure 7B)): < 10 µM | TΔS (S100P [1]; Figure 7B, pH 6.1): 4.0 kcal/mol | enthalpy change (ΔH) (S100P [1]; Figure 7B, pH 6.1): -4.1 kcal/mol | block of S100P-induced increase in migration (HeLa-A19 cells): 54% | effect on HSQC spectra of S100P / binding (S100P [2]): caused significant chemical shift changes
